Measurements from the supplement of paper PMC4894684.
Counter-ions that a name gives are not always drawn. ± gives the standard deviation of the averaged measurements. For some assays here: What follows is the remainder of the data, with few or none of the strong results. This is a selection; strong and weak results do not stand in their true shares.

What was measured:
HFF = experiment: uninfected host cell viability relative to vehicle control; higher = less host cell toxicity; conditions: 5 µM; 72 h; oxygen 21 %
[1] = tested on: Toxoplasma gondii RH (in HFF); experiment: parasite growth relative to the screen mean (all compounds = 100%); higher = less inhibition of parasite growth; conditions: 5 µM; 72 h; oxygen 21 %
In short: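 Parasite growth was reported relative to the screen mean. In that scale, the mean of all compounds equals 100%, and values are averaged over two screens. Compounds from 10 mM DMSO stocks were pin-transferred to 5 µM final onto confluent human foreskin fibroblasts in 96-well plates, infected within 2 h with RH β-Gal–GFP Toxoplasma (MOI 1:5) and grown 72 h at 21% O2, with parasite number read by a CPRG β-Gal assay against in-plate standard curves. Uninfected host-cell viability was checked with CellTiter-Blue.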
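Wherever uninfected host cell viability relative to vehicle control is given: confluent HFF monolayers, run in parallel with the Toxoplasma growth screen as a host toxicity counterscreen.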

## N/C(=N/CCc1ccc(I)cc1)SCCCc1cnc[nH]1 [Iodophenpropit dihydrobromide]
HFF
  uninfected host cell viability: 82.28 ± 0.62%
[1]
  parasite growth: 109 ± 5.9%
